Screening results as filed in PubChem.
An excerpt weighted towards active compounds, which were near 1% of everything screened.
RXFP1 ag: agonists of human relaxin receptor RXFP1; Potency, µM (doses to about 57.5 µM), inactives show at the top dose activation, most hits filed as activators; HEK293T-RXFP1 cAMP TR-FRET, 30 min; response scale: percent of porcine relaxin response, buffer zero; Q9HBX9; 370,000 compounds, 0.3% hits; note: potency is the fitted concentration of half-maximal effect; % is set by controls: 0 for no effect and ±100 for the full control effect; nearly all actives have a fitted effect of over 60% in size
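cAMP rise read by TR-FRET after 30 min, 37C compound exposure (up to 58 uM) in RXFP1-transfected HEK293 cells with Ro 20174 present. EC50 from Hill-equation fits, with 29 nM porcine relaxin as 100% and buffer as basal.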
Luc counter: counter-screen: inhibitors of Kinase-Glo firefly luciferase; Kinase-Glo luciferase, ATP luminescence, 8 min; 200,000 compounds, 0.28% hits; Potency, µM (highest dose often 38.3 µM), without a hit: at the top dose activity change, negative = inhibition, actives largely listed as inhibitors; Q27757; AID 1379; note: potency is the fitted concentration of half-maximal effect; % is set by controls: 0 for no effect and ±100 for the full control effect; nearly all actives have a fitted effect of over 60% in size
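Recombinant Kinase-Glo luciferase, 10 uM ATP (linear range), luciferin; imidazole pH 7.2 / KCl / MgCl2 / Tween / BSA buffer; 8 min RT; luminescence.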
gsp ag: agonists of gsp mutant (McCune-Albright syndrome) | AID 624287 | gsp mutant cells, cAMP HTRF, 30 min | 340,000 compounds, 0.13% hits | Potency, µM (titrated, usually from 76.9 µM), without a hit: at the top dose activation (cAMP increase), usual class: activators; active = well fitted activation curve with a large enough effect; inconclusive = small, poorly fitted or top-dose-only effect, or another doubt; inactive = no such curve, though single readings can be large or run the other way; cell line not stated here;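 note: phosphodiesterase inhibitor Ro 20-1724 added with compounds to block cAMP breakdown; potency is the fitted concentration of half-maximal effect; nearly all actives have a fitted effect of over 60% in size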
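Cells stably selected in G418 were plated at 2000/well, grown 16-24 hr, then given compounds in DMSO with the PDE inhibitor […] (300 uM solution added) for 30 min at 37C; cAMP was read by HTRF.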
gsp antagonist: gsp mutant antagonism; gsp-mutant cells, cAMP HTRF, 30 min; Potency, µM (highest dose often 76.9 µM), without a hit: at the highest dose activity change, negative = inhibition, hits mostly inhibitors; 340,000 compounds, 0.4% hits; AID 624288; calls by dose curve; cell line not stated here;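 note: intracellular cAMP measured with PDE inhibitor Ro 20-1724 present during compound exposure; potency is the fitted concentration of half-maximal effect; % is set by controls: 0 for no effect and ±100 for the full control effect; nearly all actives have a fitted effect of over 65% in size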
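HTRF cAMP measurement after 30 min RT detection following 30 min, 37C compound treatment alongside […] (added as 300 uM solution) in G418-selected cells seeded at 2000/well and grown 16–24 h.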
miR-21 FLuc: miR-21 reporter, rising signal; Potency, µM (doses to about 38.3 µM), without a hit: at the top dose reporter change, positive = more light; HeLa miR-21 FLuc reporter, luciferase, 48 h; 340,000 tested, under 10 active; active = well fitted rising curve with a large enough effect; inconclusive = small, poorly fitted or top-dose-only effect; inactive = no such curve, though single readings can be large or run the other way;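 further: % of control where 0% means no effect; miR-21 action dims this reporter so a rising signal means less miR-21 action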
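Using DMEM plus 10% FBS, HeLa miR-21-FLuc cells are incubated with test compounds (final up to about 40uM) for 48 hours; firefly luciferase signal is then imaged following reagent-mediated lysis.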
RXFP1 antagonist: antagonists of human relaxin receptor RXFP1; activity change, negative = inhibition, % at 57.5 µM; 350,000 compounds, 0.59% hits; Q9HBX9; HEK293-RXFP1, relaxin-stimulated cAMP HTRF, 30 min; hits give low values;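 active = activity change of -60% or lower, but not beyond a set lower limit; inconclusive = change between -60% and -40%, or beyond the set limit; inactive = change above -40%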; note: % is set by controls: 0 for no effect and ±100 for the full control effect
* hit, by the source's call; ? = inconclusive; . = not tested or not shown; ! = repeats disagree; [ ] = another dose, or the depositor's remark. Unless noted, calls come from the whole dose curve; as a rule, active = well fitted curve in the direction sought with a large enough effect; inconclusive = small, poorly fitted or top-dose-only effect, or another doubt; inactive = no such curve, though single readings can be large; an effect the other way counts as inactive or inconclusive.

Structure | RXFP1 ag | Luc counter | gsp ag | gsp antagonist | miR-21 FLuc | RXFP1 antagonist
COc1cccc(NC(=O)Cn2c3ccc(OC)cc3c3nc4n(c(=O)c32)CCS4)c1 | 10µM* | . | ? | 0% | 0% | 4
S=c1nc(SCc2ccccc2)[nH]c2ccccc12 | 28µM* | -1% | 52%[15.4 µM] | -3% | -4% | 16
Cc1ccc(Cl)cc1-n1ncc2c(NCc3ccc(F)cc3)ncnc21 | -3% | . | . | . | 9% | -65*
Cc1nc2ccccc2c2oc(C(=O)NCC3COc4ccccc4O3)cc12 (stereo not drawn) | 0% | -2% | ? | 40µM* | 23% | -84*
COc1ccc(N(CC(=O)NCCOc2ccccc2)S(=O)(=O)c2ccc(C)cc2)cc1 | -2% | . | 14% | -14% | 6% | -62*
C[C@]1(Cn2ccnn2)[C@H](C(=O)O)N2C(=O)C[C@H]2S1(=O)=O | . | . | . | . | . | -5
CCN(CC)c1ccc2nc3c4ccccc4c(=O)cc-3oc2c1 | 5% | . | 23% | -2% | -58% | 2
CCN(CC)c1ccc2c(-c3ccc(S(=O)(=O)O)cc3S(=O)(=O)[O-])c3ccc(=[N+](CC)CC)cc-3oc2c1 | 28µM* | . | 60%[15.4 µM] | 14% | 16% | 37
O=C(Nc1nc(-c2ccco2)c(-c2ccco2)s1)C1CCC1 | 0% | -4% | -28% | -10% | -7% | -61*
N#Cc1c(N2CCSCC2)nsc1-c1ccccc1Cl | ? | . | 16µM* | -8% | -20% | 3
CCOc1cc2sc(N3CCC(C(=O)Nc4ccc(C)cc4C)CC3)nc2cc1Br | 0% | . | . | . | -44% | -16
CC1CCCN(C(=O)COC(=O)CNC(=O)c2sc3ccccc3c2Cl)C1 (stereo not drawn) | ? | . | 32µM* | 8% | . | 3
CCOc1cc(C)c(-c2onc(C(F)(F)F)c2-c2csc(C)n2)c(O)c1 | 3% | -5% | 5% | ? | ? | -84*
CCC1CN(C(=O)N2CCC(C(=O)N3CCN(c4ccccc4F)CC3)CC2)c2ccccc2O1 (stereo not drawn) | -4% | . | . | . | -5% | -17
O=C(Nc1ccc(CSc2ccccc2)cc1)c1ccccc1 | 2% | -14% | 28%[15.4 µM] | 13% | -4% | -10
O=C(Nc1ccccc1)c1ccc(CSc2ccccn2)cc1 | 3% | 11µM* | 1% | 4% | -15% | 17
CCOC(=O)c1ccc(O)c(O)c1 | . | . | . | . | . | 12
CC1(c2ccc(OCC#N)cc2)C=C(c2ccc(OCC#N)cc2)n2nc(C(F)(F)F)nc2N1 (stereo not drawn) | -1% | 0% | -25% | -21% | ? | -3
Cc1ccc(C2=CC(C)(c3ccc(C)cc3)Nc3nc(C(F)(F)F)nn32)cc1 (stereo not drawn) | 0% | 1% | 6%[15.4 µM] | 12% | 3% | -67*
Cc1nn(-c2ccc(N3CCCC3)nn2)c(C)c1CCC(=O)Nc1ccc(F)cc1F | 4% | . | . | . | 2% | -1
CCn1c2ccccc2c2nnc(SCC(=O)NCCOC)nc21 | 10% | -4% | 10µM* | 4% | -15% | 13
Cc1c(C(=O)O)c(O)cc2c1C(=O)c1c(O)c([C@@H]3O[C@H](CO)[C@@H](O)[C@H](O)[C@H]3O)c(O)c(O)c1C2=O | . | . | . | ? | . | -20
Cc1c(C(=O)O)c(O)cc2c1C(=O)c1c(O)c([C@H]3O[C@H](CO)[C@@H](O)[C@H](O)[C@H]3O)c(O)c(O)c1C2=O | . | 13µM*! | . | . | . | .
COc1ccc(NC(=O)Nc2ccccc2SC)cc1 | -1% | 10µM* | -7% | 11% | -49% | -6
COc1ccc(NC(=O)Nc2ccccc2F)cc1 | 0% | ? | -4% | 9% | -18% | -18
C/C(=N/NC(=O)c1ccc(C)nc1)c1ccc2c(c1)CCCC2 | 1% | -1% | -1%[15.4 µM] | 12% | 5% | -62*
CCC(Sc1nc2ccccc2c(=O)n1CCc1ccc(OC)c(OC)c1)C(=O)N(CC)CC (stereo not drawn) | 1% | . | . | . | ? | -26
